# Apparent affinities of Ab-14 variants for a coronavirus HR2 peptide

From the AlphaSeq antibody data of Li et al. 2023 (doi:10.1038/s41467-023-39022-2), copy in the FLAb collection.

All variants were tested on one target, the spike HR2 peptide PDVDLGDISGINAS (SARS-CoV-2).

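The starting antibody came from a phage panning campaign against this peptide. This is the validation round: designs drawn from the data on random variants, tested in the same kind of assay. Their group label is 14L_Ctrl (Ctrl: baseline library sampled from a position-specific scoring matrix, with some repeated check sequences). Affinity was read by AlphaSeq, a pooled yeast mating assay with surface-displayed partners. Pairs that bind mate more often; barcode pairs of the diploids are counted by sequencing. Read counts were normalised to the haploid input and turned into Kd by a linear fit to BCL2-family pairs of known affinity, for each replicate. Each pool was mated in six replicate cultures.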

Parent scFv Ab-14: VH joined to VL by a (GGGGS)3 linker. Changes lie in the light chain CDRs alone.
VH: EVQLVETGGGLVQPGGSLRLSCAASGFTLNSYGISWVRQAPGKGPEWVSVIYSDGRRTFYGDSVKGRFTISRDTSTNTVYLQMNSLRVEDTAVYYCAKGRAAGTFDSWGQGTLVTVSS
VL: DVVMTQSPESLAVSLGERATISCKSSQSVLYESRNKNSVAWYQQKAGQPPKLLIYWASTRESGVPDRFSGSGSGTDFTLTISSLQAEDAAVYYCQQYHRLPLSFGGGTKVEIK

Each variant is given by its three light chain CDRs, as the data file delimits them; those of the parent are KSSQSVLYESRNKNSVA, WASTRES, QQYHRLPLS. The read-out is the apparent dissociation constant on a log10 scale (nM): the lower, the stronger. An entry "n.d." has no value in the source: the pair was not observed among the diploids in that replicate. This suggests poor binding but is not conclusive. Of ten entries with the parent sequence, four were seen in most replicates (averages 0.34 to 2.37), three in one and three in none, so single entries are noisy. The authors' rule: three or more of the six replicates give a measured affinity, fewer mean a poor binder. A sequence measured in both rounds can read differently, since the two assays cover different ranges. Some sequences occur more than once in the pool; their replicates are listed entry by entry, parted by semicolons. Empty control strains, which show no peptide, gave a signal in 4% of pairings with all light chain designs; the median was 2.64 and 95% of these signals were weaker than 1.59. No background was subtracted. Also given: how often the same scFv was detected with the empty control strains, with their mean in brackets.

| CDR-L1 | CDR-L2 | CDR-L3 | log10 Kd (nM) by replicate | control signals |
|---|---|---|---|---|
| KSSQGVLYESNNKNSVA | WASTRES | QLYHRLPLS | n.d. n.d. n.d. n.d. n.d. n.d. | 0/18 |
| KSSKSVPYESRNKNSVA | WASTRES | QQYHRLPLS | 1.16 1.28 2.86 3.93 n.d. n.d. | 0/18 |
| KSSQSVLYESRNKNSVA | WAKTRES | QQYHRLPLS | 2.66 2.54 n.d. n.d. 2.47 2.84 | 1/18 (4.19) |
| KSSQSQLYESFNKNSVA | WASTRES | QQYHRLPLS | n.d. n.d. 1.70 n.d. n.d. 1.97 | 0/18 |
| KSSQSVLYESRNGNSVA | WASTRES | QQYHRLPLE | 2.08 n.d. n.d. n.d. n.d. n.d. | 0/18 |
| KSPPSVLYNSRNKNSVA | WASTREI | QQYHRLPLS | 3.01 2.38 1.86 1.05 3.09 n.d. | 0/18 |
| KSSQSVLYESRNKNSVA | WVSTRQS | QQYHRLPLS | n.d. n.d. n.d. n.d. n.d. n.d. | 1/18 (1.68) |
| KSSQSVLYESRNKNSVA | WASTRES | DQYHRLPLS | n.d. n.d. n.d. n.d. 1.56 n.d. | 0/18 |
| KSRGPVLYESRNKNSVA | WASTREY | QQYHRLPLS | n.d. n.d. n.d. n.d. 1.13 n.d. | 1/18 (2.35) |
| KSSDLVLYESRNKNSVA | WASTRES | DQYHILPWS | n.d. n.d. n.d. n.d. n.d. n.d. | 0/18 |
| KSSQSVAGESRNKNSLA | WASTRES | QQYHRLPLS | 1.57 0.93 1.69 2.29 0.95 2.40 | 0/18 |
| KSSESVLYESRNFNSVA | WASTRES | QQYHRLPLS | n.d. n.d. n.d. n.d. 1.09 1.98 | 0/18 |
| KSSQSVLYDSRFKNSVA | WASTRES | DQYHRLPLS | 1.42 n.d. 1.83 n.d. n.d. n.d. | 0/18 |
| YSSQSVLYESRNKNSVA | WASTRES | QQYHRLPLS | 1.71 2.67 n.d. n.d. 4.39 2.54; n.d. 1.68 n.d. n.d. n.d. n.d.; 1.46 1.06 1.33 n.d. 1.10 3.72; n.d. n.d. n.d. n.d. n.d. n.d.; n.d. n.d. n.d. n.d. n.d. 2.48 | 2/90 (2.31) |
| KSMQSVLYESRNKNSVA | GASTREE | QQYHRLPLS | 0.28 0.13 0.10 0.14 -0.02 0.34 | 1/18 (3.21) |
| KSSQSVSYEMRNKNSVA | GASTRES | QQYARLPLS | 1.65 2.16 1.46 1.36 n.d. 1.39 | 0/18 |
| KSNQSVLYESRNKNSVA | WASTRES | QQYVRLPLS | 1.52 1.73 n.d. 3.11 1.67 2.33 | 0/18 |
| KSSQSELSESDDKNSVA | SASTRES | QQPHRLPVS | n.d. n.d. n.d. n.d. n.d. n.d. | 2/18 (2.55) |
| KSSQSVLNESRNSNSVA | WASTRES | QQYHRLPLS | n.d. 1.30 1.49 2.31 n.d. n.d. | 0/18 |
| KSSQSVLYGSRNKNSVA | WASTRES | QQYHRLPLS | 2.25 2.04 1.96 2.91 2.38 2.13 | 0/18 |
| KLSQPILYESRNKNSVA | WASTRES | QQYHRLPLS | n.d. n.d. n.d. n.d. n.d. n.d. | 0/18 |
| KSSPSVLYESRNKNSVA | AVSTRES | QQYHRLPLS | 0.59 1.00 1.06 0.93 1.04 0.64 | 1/18 (2.35) |
| KSSQSDLYESRNKNSVA | WASTRQS | QQYHRLPLS | 1.70 1.39 2.29 1.61 2.68 1.84 | 0/18 |
| KSSQSVLYDSRNKNSVA | WAYTRES | QQHHRLPLS | 3.14 n.d. n.d. n.d. n.d. n.d. | 0/18 |
| KSDQSVLFESRNKPSVA | EASVRES | QQYHRLPLS | 0.81 0.67 0.66 0.85 0.94 0.80 | 0/18 |
| KSSQSVLYEHRNKNSVA | WASTRES | QQYGRLPLS | n.d. 1.64 1.06 n.d. n.d. 1.72 | 0/18 |
| KSSQSVLYESPNKNSVA | WASTRES | QQYHRLPLS | 1.31 1.54 1.48 0.87 1.65 1.87 | 1/18 (3.40) |
| KSSQSVLYESHNKNSVA | WASTREQ | QQYHRLPLS | 1.54 1.84 1.88 1.65 1.19 1.54 | 0/18 |
| KLSQSVLYESRWKNSVA | WASTRES | QQYHRLPLS | 0.94 0.97 1.09 0.77 0.75 1.08 | 1/18 (2.86) |
| KSSQSHLQESRNKNSVA | WASTRES | QQCHRLPLS | n.d. n.d. n.d. n.d. n.d. n.d. | 1/18 (2.23) |
| KSSQSWLYESRNKNSVA | WASTRED | QQYHTLPLS | n.d. n.d. n.d. 2.35 n.d. n.d. | 0/18 |
| KIMQSVTEESLNKNSVA | WAQTRES | QQYHRLPLS | 1.82 1.79 1.35 0.51 1.78 0.82 | 1/18 (3.39) |
| KSSQSVLYESRNKNSVA | WASTRES | SQYHRLPLS | n.d. n.d. n.d. n.d. n.d. 2.65 | 0/18 |
| KSSHSDLYEFRNKNSVA | WASTHEQ | QQYNRLPLS | n.d. n.d. n.d. n.d. n.d. n.d. | 0/18 |
| KSSQSFLYESRNSNSVA | AASTRES | QQYHHLPLS | 0.19 0.01 0.12 0.08 -0.08 0.03 | 2/18 (1.92) |
| KSSQGVLYESRNKNSVA | KASTRES | QQYLRLPLS | 1.05 1.57 1.33 1.39 1.30 1.34 | 0/18 |
| KSSQEVLYESRDKYSVA | RASTRES | QQYHRLPLS | 2.41 1.12 1.66 1.29 1.14 1.68 | 1/18 (1.89) |
| KMSQSVLYESRNKNPVA | WASTRES | QQYSRLPLS | 1.09 0.64 0.54 0.59 0.67 0.63 | 0/18 |
| KSDDSVLYESRNKNGCA | DASTRES | QQYHRLGLS | 2.35 n.d. 2.20 1.43 3.03 1.22 | 0/18 |
| KSSQSVLYEGRNKNSVA | WHSTRES | QQYHRLPLS | n.d. n.d. n.d. n.d. n.d. n.d. | 0/18 |
| KSSQSVLYESRNPNSVA | WASTRES | QAYHRLPLS | n.d. 3.31 n.d. n.d. n.d. n.d. | 0/18 |
| KDSQSVLKESRNKNSVA | FASTRLS | QQYHRLPLS | n.d. n.d. n.d. n.d. n.d. n.d. | 0/18 |
| KSSQSVLKESRNKNSVA | GASTRES | QQYHRLPLS | 0.67 1.30 0.89 1.24 1.05 1.35 | 1/18 (2.38) |
| KSSQSVLYESRNKNHVA | WATTRES | QQYHRLPLS | n.d. n.d. n.d. n.d. n.d. n.d. | 0/18 |
| KSSQSVLYESENKNSVA | EASTRAS | QSYHFLPLH | 1.70 2.17 2.34 1.52 1.57 1.77 | 0/18 |
| KSSFSVLVESKNKNSVA | GASTRES | QQYHRLPLS | 0.44 0.46 0.42 0.40 0.57 0.73 | 0/18 |
| KSSQAQLVESRNKNSVA | NASTRES | QQYHRLPLS | -0.01 0.18 -0.20 -0.27 -0.02 -0.25 | 0/18 |
| KSSQSVLIESRNPNSVA | WASTRES | CQYHRLPLS | n.d. n.d. n.d. n.d. n.d. n.d. | 0/18 |
| KSSPSVLYESRNKNSVA | QASTRES | QQYHRLPLS | -0.04 0.00 -0.17 0.34 -0.18 -0.23 | 0/18 |